# Data as given in PubChem BioAssay AID463212 (Sanford-Burnham Center for Chemical Genomics, 2010).
# The entries are a selection whose mix differs from that of the whole data set. Activity calls are given as the source filed them.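 The calls were made as follows: active = growth inhibition of the mutant yeast at or above 50%; inactive = the rest.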
# Test: growth inhibition of tim23-1 ts yeast – luminescence, uHTS, primary screen (AID 463212);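 also: temperature-sensitive mutant grown at 25 °C; plate controls were DMSO-treated mutant yeast for no effect and medium wells lacking yeast for full effect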
# Conditions: S. cerevisiae tim23-1 growth, BacTiter-Glo luminescence, 24 h; at 20 µM; stronger effect = higher value
row,SMILES,inhibition
1,COc1ccc(OP(C)(=O)Nc2ccccn2)cc1 (stereo unspecified),inactive: 8.04%
